We go through one substance from US20130129595A1 (SOLVAY SA, priority 2010, published 2013).

A short description of the data set: Solubility of LiPO2F2, LiF and LiPF6 in organic solvents. The note with it: for Solubility of LiPO2F2: ambient temperature.

Turning to Lithium difluorophosphate, the “Solubility of LiPO2F2” value (in acetone) came out at 20 g/100 g solvent; the “Solubility of LiPO2F2” value (in acetonitrile) is on record as 2.8 g/100 g solvent; the “Solubility of LiPO2F2” value (in diethyl carbonate) amounted to 0.4 g/100 g solvent; the “Solubility of LiPO2F2” value (in dimethoxyethane) is listed as 37 g/100 g solvent; the “Solubility of LiPO2F2” value (in dimethyl carbonate/propylene carbonate (1:1 v/v)) was 0.4 g/100 g solvent. In addition, the “Solubility (in words)” value by setting is: (in aprotic organic solvents) “in between”; (in dimethyl carbonate and propylene carbonate) “at least fairly soluble”. Besides, for the setting “in propylene carbonate, standard conditions (25° C., 1 Bara)”, the “Content of LiPO2F2 in solution relative to the total weight of the solution” value is on record as “up to 3 % by weight”.
